Data from ChEMBL document CHEMBL1144846, “Herkinorin analogues with differential beta-arrestin-2 interactions” (J Med Chem, 2008).

Protein sequences, listed by entry. Tags and fused reporters are not part of them.
UniProt P35372, whole entry, looked up: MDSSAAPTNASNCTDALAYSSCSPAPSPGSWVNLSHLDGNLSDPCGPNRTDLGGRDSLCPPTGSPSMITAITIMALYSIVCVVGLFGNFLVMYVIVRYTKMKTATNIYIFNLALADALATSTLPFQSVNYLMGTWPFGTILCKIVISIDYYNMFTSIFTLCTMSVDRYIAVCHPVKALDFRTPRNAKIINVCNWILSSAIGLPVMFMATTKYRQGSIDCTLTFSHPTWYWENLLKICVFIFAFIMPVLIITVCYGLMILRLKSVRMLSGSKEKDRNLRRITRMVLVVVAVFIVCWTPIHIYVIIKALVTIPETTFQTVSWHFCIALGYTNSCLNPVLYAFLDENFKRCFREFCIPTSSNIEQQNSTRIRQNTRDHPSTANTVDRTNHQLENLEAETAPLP

Target: Mu-type opioid receptor (Homo sapiens, UniProt P35372)
Experiment: Agonist activity at human recombinant mu opioid receptor expressed in CHO cells by [35S]GTP-gamma-S binding assay relative to DAMGO
Format: functional, cell-based

CN(C(=O)Cc1ccc(Cl)c(Cl)c1)C1CCCCC1N1CCCC1 (stereo unspecified)
Emax: 35%
